Measurements: PubChem BioAssay (NCATS)
Only a part is listed here, and it is no random draw. Inconclusive results are not listed. Calls of active or inactive are those of the source. Calls come from the whole dose curve; as a rule, active = well fitted curve in the direction sought with a large enough effect; inconclusive = small, poorly fitted or top-dose-only effect, or another doubt; inactive = no such curve, though single readings can be large; an effect the other way counts as inactive or inconclusive.

Tests used:
[1] = MultiTox-Fluor Cytotoxicity Assay - LYMP1-001 - Dead Cells (AID 946); conditions: LYMP1-001 lymphoblastoid cells, dead-cell protease fluorescence; at 92.2 µM (top of the series);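 note: 0% = DMSO and 100% = tetraoctylammonium bromide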
Outline: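 AC50 from Hill fit of concentration-response; data normalized to DMSO (basal) and 15 uM tetraoctylammonium bromide (100%). LYMP1-001 lymphoblastoid cells, 2500/well, 16 hr compound at 37 C; dead-cell protease fluorescence, Ex/Em 485/520.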

[2] = MultiTox-Fluor Cytotoxicity Assay - LYMP1-001 - Live Cells (AID 947); conditions: LYMP1-001 lymphoblastoid cells, live-cell protease fluorescence viability; at 92.2 µM (top of the series);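 note: 0% = DMSO only and full inhibition = tetraoctylammonium bromide control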
[3] = Cell Viability - LYMP1-002 - Assay at 16 hr (AID 948); conditions: LYMP1-002 lymphoblastoid cell viability; at 92.2 µM (top of the series);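 note: 0% = DMSO alone and full effect = 92 µM tetraoctylammonium bromide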
Outline: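 Seed 2500 LYMP1-002 cells per well in complete medium and hold 5 hr at 37 C. Add compound across a concentration series and incubate 16 hr at 37 C. Add CellTiter-Glo, wait 30 min at room temperature, read luminescence.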

[4] = MultiTox-Fluor Cytotoxicity Assay - LYMP1-002 - Live Cells (AID 955); conditions: LYMP1-002 lymphoblastoid live-cell protease fluorescence viability; at 46.1 µM (top of the series);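 note: cells exposed to compound for 16 hours; % is set by controls: 0 for no effect and ±100 for the full control effect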
Outline: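 After 16 h compound exposure at 37 C, live LYMP1-002 lymphoblastoid cells (2500/well) were quantified by cleavage of cell-permeant GF-AFC substrate, read at 405/510 nm after 60 min. Concentration-response fitted with Hill equation for AC50.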

[5] = MultiTox-Fluor Cytotoxicity Assay - LYMP1-002 - Dead Cells (AID 960); conditions: LYMP1-002 lymphoblastoid cells, dead-cell protease fluorescence; at 46.1 µM (top of the series);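 note: 0% = DMSO and 100% = tetraoctylammonium bromide; nearly all actives have a fitted effect of over 60% in size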
Outline: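 Dead-cell fluorescence (Ex/Em 485/520) after 16 h compound exposure at 37 C of LYMP1-002 lymphoblastoid cells in complete medium; AC50 by Hill equation, with data scaled between DMSO and 15 uM tetraoctylammonium bromide.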

[6] = MultiTox-Fluor Cytotoxicity Assay - LYMP1-003 - Dead Cells (AID 961); conditions: LYMP1-003 lymphoblastoid cells, dead-cell protease fluorescence; at 92.2 µM (top of the series);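 note: 0% = DMSO and 100% = tetraoctylammonium bromide; nearly all actives have a fitted effect of over 70% in size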
Outline: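 Human lymphoblastoid LYMP1-003 cells (2500/well) were treated with compounds for 16 hr at 37 C in complete medium. Dead-cell protease release was read by bis-AAF-R110 fluorescence (Ex/Em 485/520). AC50 came from Hill fits, normalized to DMSO and 15 uM tetraoctylammonium bromide.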

[7] = MultiTox-Fluor Cytotoxicity Assay - LYMP1-003 - Live Cells (AID 962); conditions: LYMP1-003 lymphoblastoid cells, MultiTox-Fluor live-cell protease fluorescence; at 92.2 µM (top of the series);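 note: cells exposed to compound for 16 hours at 37 °C; 0% = DMSO only and full loss = 92 µM tetraoctylammonium bromide; cytotoxic hits lower the live-cell protease signal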
Outline: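 Live-cell protease activity (GF-AFC substrate, 405/510 nm, 60 min at room temperature) after 16 h, 37 C compound exposure of human lymphoblastoid LYMP1-003 cells; concentration-response fitted to the Hill equation for AC50.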

[8] = Cell Viability - LYMP1-003 - Assay at 24 hr (AID 963); conditions: LYMP1-003 lymphoblastoid cell viability; at 92.2 µM (top of the series);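 note: plate controls were DMSO only for no effect and tetraoctylammonium bromide positive control for full effect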
Outline: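 Concentration-response qHTS: ATP loss measured by CellTiter-Glo luminescence after 24 h compound exposure at 37 C. Cells were LYMP1-003 human lymphoblastoid, 2500 per well. AC50 derived via standard Hill equation modeling.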

[9] = Cell Viability - LYMP1-003 - Assay at 40 hr (AID 964); conditions: LYMP1-003 lymphoblastoid viability; at 92.2 µM (top of the series); note: % is set by controls: 0 for no effect and ±100 for the full control effect; nearly all actives have a fitted effect of over 60% in size
Outline: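 Viability is taken as cellular ATP, read by CellTiter-Glo luminescence after 40 h of compound exposure at 37 C. Cells: human lymphoblastoid line LYMP1-003 at 2500/well; AC50 values derived by Hill-equation fitting of concentration-response data.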

[10] = Cell Viability - LYMP2-005 (AID 967); conditions: LYMP2-005 lymphoblastoid cell viability; at 92.2 µM (top of the series);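 note: plate controls were DMSO only for no effect and 92 µM tetraoctylammonium bromide control for full effect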
Outline: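 Acute cytotoxicity is scored as a concentration-dependent drop in intracellular ATP in human lymphoblastoid LYMP2-005 cells after 24 h compound treatment. ATP is quantified by luciferase luminescence, and AC50 is derived by Hill-equation modelling.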

[11] = Cell Viability - LYMP2-009 (AID 968); conditions: LYMP2-009 lymphoblastoid cell viability; at 92.2 µM (top of the series);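 note: 0% = DMSO alone and the full-kill end = tetraoctylammonium bromide at 92 µM; nearly all actives have a fitted effect of over 55% in size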
[12] = Cell Viability - LYMP2-013 (AID 970); conditions: LYMP2-013 lymphoblastoid cells viability; at 92.2 µM (top of the series);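 note: 0% = DMSO only and full inhibition = tetraoctylammonium bromide control; nearly all actives have a fitted effect of over 55% in size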
Outline: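 qHTS cytotoxicity: ATP-dependent luminescence (CellTiter-Glo, 30 min room temperature) read after 24 h compound exposure at 37 C of 2500 LYMP2-013 lymphoblastoid cells per well. Concentration-response fitted with Hill equation to give AC50.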

[13] = Cell Viability - LYMP2-003 (AID 965); conditions: LYMP2-003 lymphoblastoid cell viability; at 92.2 µM (top of the series);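 note: cells exposed to compounds for 24 h before reading; 0% = DMSO only and full effect = 92 µM tetraoctylammonium bromide; nearly all actives have a fitted effect of over 50% in size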
Outline: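 Seed 2500 lymphoblastoid cells/well; incubate 5 hr, 37 C; add compounds; incubate 24 hr, 37 C; add CellTiter-Glo, 30 min RT; read luminescence. AC50 from Hill fit.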

[14] = Cell Viability - LYMP2-004 (AID 966); conditions: LYMP2-004 lymphoblastoid cell viability, qHTS; at 92.2 µM (top of the series);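 note: plate controls were DMSO only for no effect and tetraoctylammonium bromide control for full effect; nearly all actives have a fitted effect of over 65% in size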
Outline: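 AC50 values come from Hill modelling of concentration-dependent loss of intracellular ATP, measured by CellTiter-Glo luminescence. Human LYMP2-004 lymphoblastoid cells (2500/well) were exposed to compound for 24 h at 37 C.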

[15] = Cell Viability - LYMP2-011 (AID 969); conditions: LYMP2-011 lymphoblastoid cells viability; at 92.2 µM (top of the series);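 note: 0% = DMSO only and full inhibition = 92 µM tetraoctylammonium bromide; nearly all actives have a fitted effect of over 60% in size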
Outline: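 Cytotoxicity qHTS with ATP content as read-out: lymphoblastoid cells (2500/well) exposed to compound for 24 h at 37 C, then luciferase luminescence measured. Concentration-response data fitted with the standard Hill equation to give AC50.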

[16] = Cell Viability - LYMP2-015 (AID 971); conditions: LYMP2-015 lymphoblastoid cell viability; at 92.2 µM (top of the series);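 note: 0% = DMSO only and full effect = 92 µM tetraoctylammonium bromide; nearly all actives have a fitted effect of over 55% in size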
Outline: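 Cytotoxicity readout: decrease in intracellular ATP (CellTiter-Glo luminescence) in 2500 LYMP2-015 lymphoblastoid cells/well after 24 h compound exposure at 37 C. Concentration-response data fitted with the standard Hill equation to give AC50.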

[17] = Cell Viability - LYMP2-017 (AID 972); conditions: LYMP2-017 lymphoblastoid cell viability; at 92.2 µM (top of the series); note: % is set by controls: 0 for no effect and ±100 for the full control effect; nearly all actives have a fitted effect of over 55% in size
Outline: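 CellTiter-Glo luminescence (cellular ATP, 30 min RT) measured cytotoxicity after 24 hr compound treatment at 37 C. Cells were a human lymphoblastoid line, LYMP2-017, plated at 2500/well and incubated 5 hr first; concentration-response fitted with Hill equation for AC50.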

[18] = Cell Viability - LYMP2-019 (AID 973); conditions: LYMP2-019 lymphoblastoid cell line viability; at 92.2 µM (top of the series)
Outline: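 AC50 values come from Hill-equation fits of luminescent intracellular ATP (CellTiter-Glo, 30 min, room temperature) following 24 h compound exposure at 37 C. Cells: LYMP2-019 lymphoblastoid line, 2500 per well, in complete culture medium.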

[NH4+].[O-][Cl+3]([O-])([O-])[O-]
inactive: cytotoxicity (dead cells) [1] -2.73% | activity change, negative = cytotoxicity [2] -0.755% | activity change, negative = cytotoxicity [3] -3.79% | viability change, negative = cytotoxic [4] 6.18% | cytotoxicity (dead cells) [5] 21.8% | cytotoxicity (dead cells) [6] -19.7% | activity change, negative = fewer live cells [7] -4.42% | viability change, negative = cytotoxic [8] 2.67% | activity change, negative = cytotoxic [9] -4.11% | activity change, negative = viability loss [10] 8.35% | activity change, negative = viability loss [11] -3.8% | activity change, negative = cytotoxic [12] -1.17%

O=[N+]([O-])[O-].[NH4+]
inactive: cytotoxicity (dead cells) [1] 2.76% | activity change, negative = cytotoxicity [2] 7.03% | activity change, negative = cytotoxicity [3] -0.442% | viability change, negative = cytotoxic [4] -1.41% | cytotoxicity (dead cells) [5] 8.24% | cytotoxicity (dead cells) [6] -9.7% | activity change, negative = fewer live cells [7] -0.794% | viability change, negative = cytotoxic [8] -1.13% | activity change, negative = cytotoxic [9] 0.414% | activity change, negative = cytotoxicity [13] 21.7% | activity change, negative = cytotoxicity [14] -10.8% | activity change, negative = viability loss [10] 28.2% | activity change, negative = viability loss [11] 1.15% | viability change, negative = cytotoxic [15] -1.13% | activity change, negative = cytotoxic [12] -12.8% | activity change, negative = lower viability [16] -5.12% | activity change, negative = cytotoxicity [17] 2.14% | activity change, negative = cytotoxicity [18] -6.34%

CCOP(=O)(CC)OCC
inactive: cytotoxicity (dead cells) [1] 2.94% | activity change, negative = cytotoxicity [2] -10.5% | activity change, negative = cytotoxicity [3] -1.11% | viability change, negative = cytotoxic [4] -3.43% | cytotoxicity (dead cells) [5] 18.9% | cytotoxicity (dead cells) [6] -2.1% | activity change, negative = fewer live cells [7] -5.03% | viability change, negative = cytotoxic [8] -0.703% | activity change, negative = cytotoxic [9] 3.24% | activity change, negative = cytotoxicity [13] 10.9% | activity change, negative = cytotoxicity [14] 14.6% | activity change, negative = viability loss [10] 4.85% | activity change, negative = viability loss [11] 4.97% | viability change, negative = cytotoxic [15] 1.49% | activity change, negative = cytotoxic [12] -3.25% | activity change, negative = lower viability [16] -5.28% | activity change, negative = cytotoxicity [17] -7.31% | activity change, negative = cytotoxicity [18] -7.39%

Cc1cccc([N+](=O)[O-])c1[N+](=O)[O-]
inactive: cytotoxicity (dead cells) [1] 0.502% | activity change, negative = cytotoxicity [2] -19.6% | activity change, negative = cytotoxicity [3] -9.52% | viability change, negative = cytotoxic [4] 1.51% | cytotoxicity (dead cells) [6] 0.752% | activity change, negative = fewer live cells [7] -3.13% | viability change, negative = cytotoxic [8] -6.77% | activity change, negative = cytotoxic [9] -16.9% | activity change, negative = cytotoxicity [13] 6.98% | activity change, negative = cytotoxicity [14] -12.8% | activity change, negative = viability loss [10] 22.5% | activity change, negative = viability loss [11] -16.9% | viability change, negative = cytotoxic [15] -8.76% | activity change, negative = cytotoxic [12] -4.22% | activity change, negative = lower viability [16] -21.6% | activity change, negative = cytotoxicity [17] -14.6% | activity change, negative = cytotoxicity [18] -13.2%
